Assay results from article PMC5979480, “Glucose-Dependent Insulinotropic Polypeptide Mitigates 6-OHDA-Induced Behavioral Impairments in Parkinsonian Rats” (International Journal of Molecular Sciences, 2018).

What was measured:
[1] = overnight (12 h) fast, tail vein blood, glucometer; n = 3/group
[2] = 15 nmol/kg/day GIP n = 11, saline n = 12; 6-OHDA lesioned rats; p = 0.419
DPP-4 = settings: in circulation, rapid hydrolysis by DPP-4; cited from earlier work

## CC[C@H](C)[C@H](NC(=O)[C@H](CO)NC(=O)[C@H](Cc1ccc(O)cc1)NC(=O)[C@H](CC(=O)O)NC(=O)[C@H](CO)NC(=O)[C@@H](NC(=O)[C@H](Cc1ccccc1)NC(=O)[C@@H](NC(=O)CNC(=O)[C@H](CCC(=O)O)NC(=O)[C@H](C)NC(=O)[C@@H](N)Cc1ccc(O)cc1)[C@@H](C)O)[C@@H](C)CC)C(=O)N[C@@H](C)C(=O)N[C@@H](CCSC)C(=O)N[C@@H](CC(=O)O)C(=O)N[C@@H](CCCCN)C(=O)N[C@H](C(=O)N[C@@H](Cc1c[nH]cn1)C(=O)N[C@@H](CCC(N)=O)C(=O)N[C@@H](CCC(N)=O)C(=O)N[C@@H](CC(=O)O)C(=O)N[C@@H](Cc1ccccc1)C(=O)N[C@H](C(=O)N[C@@H](CC(N)=O)C(=O)N[C@@H](Cc1c[nH]c2ccccc12)C(=O)N[C@@H](CC(C)C)C(=O)N[C@@H](CC(C)C)C(=O)N[C@@H](C)C(=O)N[C@@H](CCC(N)=O)C(=O)N[C@@H](CCCCN)C(=O)NCC(=O)N[C@@H](CCCCN)C(=O)N[C@@H](CCCCN)C(=O)N[C@@H](CC(N)=O)C(=O)N[C@@H](CC(=O)O)C(=O)N[C@@H](Cc1c[nH]c2ccccc12)C(=O)N[C@@H](CCCCN)C(=O)N[C@@H](Cc1c[nH]cn1)C(=O)N[C@@H](CC(N)=O)C(=O)N[C@H](C(=O)N[C@H](C(=O)N[C@@H](CCC(N)=O)C(=O)O)[C@@H](C)O)[C@@H](C)CC)C(C)C)[C@@H](C)CC [GIP, glucose-dependent insulinotropic polypeptide]
[1]
  Fasting blood glucose during GIP treatment: no change
[2]
  Body weight, GIP vs saline: did not differ
DPP-4
  Half-life of active GIP: approximately 7 min
